Only a part is listed here, and it is no random draw. The source made the active and inactive calls. Rule as the data show it: active = activation above about 27%; inactive = the rest.

The chains behind the UniProt entries cited, without tags or fusion partners.
UniProt P49146, whole entry: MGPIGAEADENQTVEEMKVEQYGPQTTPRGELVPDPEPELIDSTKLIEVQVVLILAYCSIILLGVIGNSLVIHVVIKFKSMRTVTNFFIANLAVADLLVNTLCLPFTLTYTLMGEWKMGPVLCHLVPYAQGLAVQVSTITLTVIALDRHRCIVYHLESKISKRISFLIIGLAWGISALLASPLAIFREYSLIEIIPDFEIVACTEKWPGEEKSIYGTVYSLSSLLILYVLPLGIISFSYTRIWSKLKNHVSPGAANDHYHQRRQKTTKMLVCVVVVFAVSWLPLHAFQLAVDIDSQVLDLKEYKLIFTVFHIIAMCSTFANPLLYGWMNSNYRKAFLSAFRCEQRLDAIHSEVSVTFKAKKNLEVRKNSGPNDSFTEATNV

In this assay the target is Neuropeptide Y receptor type 2 (Homo sapiens) (UniProt P49146). Description: NPY-Y2 potentiators or agonists, primary screen, cell-based (AID 1359).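 Also: cells stimulated with NPY near EC25 plus isoproterenol at EC100; 0% = vehicle plus submaximal agonist and 100% = vehicle plus saturating agonist.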 To be noted: cells expressing NPY-Y2, potentiator/agonist read-out; at 3.6 µM; active compounds read high.
Take `CP(=O)(Nc1ccc(Cl)cc1Cl)Oc1ccccc1` (stereo unspecified): the activation was inactive: -16.6%.
The value for `CP(=O)(OCCOc1ccccc1)OCCOc1ccccc1` was inactive: -10.3%; that for `CCOC(=O)c1ccc(NP(C)(=O)Oc2ccc(F)cc2)cc1` (stereo unspecified) was inactive: 4.96%; that for `COc1ccc(OP(C)(=O)Nc2ccc(SC(F)(F)F)cc2)cc1` (stereo unspecified) was inactive: 17.7%.
The result for `CCN(CC)CCCOC(=O)C(O)(c1ccccc1)C1CCCCC1` (stereo unspecified) reads inactive: -12.1%.
Turning to `CP(=O)(Nc1ccccc1)Oc1ccc(F)cc1` (stereo unspecified), the activation was inactive: 15.7%.
Consider `CCCCCOc1ccc(NP(C)(=O)Oc2ccc(Cl)cc2Cl)cc1` (stereo unspecified), for which the activation was inactive: -39.9%.
The value for `CP(=O)(Nc1ccccc1F)Oc1ccccc1` (stereo unspecified) was inactive: 6.54%.
The value for `CC(C)c1ccc(OP(C)(=O)Nc2ccc(SC(F)(F)F)cc2)cc1` (stereo unspecified) was inactive: -2.44%; that for `O=C(OC1CN2CCC1CC2)c1ccc([N+](=O)[O-])cc1` (stereo unspecified) was inactive: -6.54%; that for `O=C(OCCN1CCN(CCOCc2ccccc2)CC1)C(O)(c1ccccc1)c1ccccc1` was inactive: -0.75%.
The value for `CP(=O)(Nc1ccc(SC(F)(F)F)cc1)Oc1ccc(F)cc1` (stereo unspecified) was inactive: 18%.
Regarding `CCOP(C)(=S)SCC(=O)NC(C)(CC)C(=O)O` (stereo unspecified), the activation was inactive: 15%.
Consider `CP(=O)(Nc1ccc2c(c1)OCCO2)Oc1ccccc1` (stereo unspecified), for which the activation is inactive: -7.06%.
`Cc1ccccc1NP(C)(=O)Nc1ccccc1C`: the activation was inactive: 16.4%.
For the compound `COc1ccc(OP(C)(=O)Nc2cccc(Br)c2)cc1` (stereo unspecified), the activation is inactive: 9.19%.
Turning to `CN(C)CCOC(=O)C(O)(c1ccccc1)C1CCCCC1` (stereo unspecified), the activation was inactive: -18.4%.
Consider `COc1ccc(NP(C)(=O)Oc2ccccc2OC)cc1` (stereo unspecified), for which the activation is inactive: 6.18%.
The value for `O=[N+]([O-])c1ccc(OP2(=O)COCCO2)cc1` (stereo unspecified) was inactive: -1.61%; that for `Cc1cc(-c2cccc3ccccc23)c(C)cn1.O=[N+]([O-])c1cc([N+](=O)[O-])c(O)c([N+](=O)[O-])c1` was inactive: -16.1%; that for `O=[N+]([O-])c1cc([N+](=O)[O-])c(NCC2CCS(=O)(=O)C2)c([N+](=O)[O-])c1` (stereo unspecified) was inactive: -4.58%.

For the origin of these results see PubChem BioAssay AID1359 (The Scripps Research Institute Molecular Screening Center, 2008).
